Assay results: patent publication US4117136A, “Systemic antimicrobial quinolines for plant disease” (Sumitomo Chemical Company, Ltd., priority 1976, dated 1978)

System: Soft Rot of Chinese Cabbage Caused by E. carotovora
Format: in vivo, Erwinia carotovora (on Chinese cabbage)
Details: sprayed at 500 ppm 16 hours after inoculation

## CCn1cc(C(=O)O)c(=O)c2ccc(C)nc21 [Nalidixic acid, nalidixic acid, reference compound]
  Severity of Disease: 100
